Here are results for 1 compound from BindingDB's records for doi:10.1073/pnas.83.22.8784 (The Oregon Health Sciences University, 1986).

Protein sequences, listed by entry. Tags and fused reporters are not part of them.
UniProt P14842, whole entry: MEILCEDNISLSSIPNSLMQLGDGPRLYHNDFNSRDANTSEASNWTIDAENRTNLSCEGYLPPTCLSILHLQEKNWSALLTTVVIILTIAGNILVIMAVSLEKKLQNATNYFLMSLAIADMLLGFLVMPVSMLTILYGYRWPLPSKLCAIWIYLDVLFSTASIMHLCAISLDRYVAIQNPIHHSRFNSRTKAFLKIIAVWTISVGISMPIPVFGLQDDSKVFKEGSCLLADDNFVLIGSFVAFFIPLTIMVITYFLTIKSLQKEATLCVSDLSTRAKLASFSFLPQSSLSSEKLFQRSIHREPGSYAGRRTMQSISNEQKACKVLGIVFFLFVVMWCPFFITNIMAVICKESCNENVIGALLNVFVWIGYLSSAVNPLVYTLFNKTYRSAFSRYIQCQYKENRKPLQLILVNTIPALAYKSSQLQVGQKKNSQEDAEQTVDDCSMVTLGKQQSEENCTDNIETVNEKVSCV

Structures are written as SMILES.

The test has as its target 5-hydroxytryptamine receptor 2A (Rattus norvegicus, UniProt P14842).

Take `Cc1nc2sccn2c(=O)c1CCN1CCC(=C(c2ccc(F)cc2)c2ccc(F)cc2)CC1`: the Ki (usually a dissociation constant, usually derived from enzyme kinetics or from competition with a known ligand) is 5.5 nM.
